Experimental data: patent EP1007066B1, “SCREENING METHODS FOR GLUCOCORTICOID RECEPTOR BINDING SUBSTANCES USING TRYPTERYGIUM WILFORDII PREPARATIONS” (priority 1996, dated 1998)

Assay: in vitro
Assay type: cell-based
Procedure: The cells were assayed for cell viability by using a cytoflowmeter (FACSCAN) after the cells were stained with propidium iodine. […]

**Q.** With `CC(C)[C@]12O[C@H]1[C@@H]1O[C@]13[C@]1(O[C@H]1C[C@H]1C4=C(CC[C@@]13C)C(=O)OC4)[C@@H]2O` [triptolide] as the molecule, how does the viability at 72 hr, 1 ng/ml read?
**A.** 89.3%
